Assay results: PubChem BioAssay AID434962 (The Scripps Research Institute Molecular Screening Center, 2010)
The list shows a part of the results, in another mix than the full data. Activity calls are given as the source filed them.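 The calls were made as follows: active = percent inhibition above the average of all tested compounds plus 3 SD, set per screening campaign (cut at about 16% in these data); inactive = the rest.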

Chains of the proteins cited; added tags and fusions are not shown.
UniProt P14735, whole entry, looked up: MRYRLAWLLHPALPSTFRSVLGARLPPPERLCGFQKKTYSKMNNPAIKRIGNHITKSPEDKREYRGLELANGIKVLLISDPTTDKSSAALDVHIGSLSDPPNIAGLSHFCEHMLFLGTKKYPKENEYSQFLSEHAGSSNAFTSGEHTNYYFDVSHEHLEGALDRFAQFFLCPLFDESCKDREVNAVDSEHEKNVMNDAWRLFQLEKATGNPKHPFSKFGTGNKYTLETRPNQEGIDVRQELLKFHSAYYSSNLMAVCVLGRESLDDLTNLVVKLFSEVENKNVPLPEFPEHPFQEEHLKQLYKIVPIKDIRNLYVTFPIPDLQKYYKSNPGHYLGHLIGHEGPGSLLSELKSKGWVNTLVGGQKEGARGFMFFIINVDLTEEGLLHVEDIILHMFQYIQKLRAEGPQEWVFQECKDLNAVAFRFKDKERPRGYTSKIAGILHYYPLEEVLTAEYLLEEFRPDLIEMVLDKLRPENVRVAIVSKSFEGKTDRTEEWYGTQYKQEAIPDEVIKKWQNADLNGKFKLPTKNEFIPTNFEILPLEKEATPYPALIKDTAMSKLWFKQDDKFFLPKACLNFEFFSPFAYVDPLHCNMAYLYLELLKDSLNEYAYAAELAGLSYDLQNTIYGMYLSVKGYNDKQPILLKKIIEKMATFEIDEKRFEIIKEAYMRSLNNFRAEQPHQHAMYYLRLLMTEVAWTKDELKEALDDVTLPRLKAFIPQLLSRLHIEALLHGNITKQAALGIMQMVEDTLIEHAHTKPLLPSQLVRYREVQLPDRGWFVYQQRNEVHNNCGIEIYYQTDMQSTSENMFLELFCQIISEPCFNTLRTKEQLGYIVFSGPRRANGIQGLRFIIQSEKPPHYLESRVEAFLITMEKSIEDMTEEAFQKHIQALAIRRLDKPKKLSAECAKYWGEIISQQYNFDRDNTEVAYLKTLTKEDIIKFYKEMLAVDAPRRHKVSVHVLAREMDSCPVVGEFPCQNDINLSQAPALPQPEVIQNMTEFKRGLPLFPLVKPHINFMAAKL

The compounds below were run against Insulin-degrading enzyme (Homo sapiens) (UniProt P14735) (assay: cellular IDE Abeta-cleavage inhibition – fluorescence polarization, HEK cells, FAbetaB substrate, primary screen (AID 434962;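 also: IDE supplied by intact live HEK cells; FP after avidin binding of uncleaved biotin substrate so inhibition keeps polarization high; 0% = DMSO wells and 100% = 60 µM reference IDE inhibitor Ii1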)). Details: at 5.59 µM, hits give high values.

Question: Which inhibition does the source give for COc1cc(C(=O)NCC2(N3CCOCC3)CCCCC2)cc(Cl)c1OC(C)C here?
Answer: inactive: 5.31%

Question: Which inhibition does the source give for O=[As](O)(O)c1cccnc1 here?
Answer: inactive: 2.98%

Question: How did the inhibition turn out when O=C(OC1CN2CCC1CC2)c1ccc(Cl)cc1 (stereo not given) was run?
Answer: inactive: -3.24%

Question: For O=[As](O)(c1cccc(O)c1)c1cccc(O)c1, which inhibition is on record?
Answer: inactive: -6.37%

Question: Which inhibition does the source give for Cc1cccc(OCC(=O)OC2CN3CCC2CC3)c1 (stereo not given) here?
Answer: inactive: 3.17%

Question: NC(=O)Nc1ccc([As](=O)(O)O)cc1 was tested. Which inhibition did it give?
Answer: inactive: -1.82%

Question: For CN(C(=O)Cc1ccc(Cl)c(Cl)c1)[C@H]1CC[C@@]2(CCCO2)C[C@@H]1N1CCCC1, which inhibition is on record?
Answer: inactive: -0.15%

Question: With CN(C)C(=O)c1cc([N+](=O)[O-])cc2c1-c1c(cc([N+](=O)[O-])cc1[N+](=O)[O-])C2=O as the compound, how does the inhibition read?
Answer: inactive: 6.55%

Question: Which inhibition does the source give for O=[N+]([O-])c1ccc2c(c1)nnn2O here?
Answer: inactive: -2.2%

Question: CCOP1(=S)c2c(C)nn(CCC#N)c2N=C(c2ccc(F)cc2)N1C (stereo not given) was tested. Which inhibition did it give?
Answer: inactive: 0.47%

Question: CN(C(=O)Cc1ccccc1)[C@@H]1CC[C@]2(CCCO2)C[C@H]1N1CCCC1 was tested. Which inhibition did it give?
Answer: inactive: 9.8%

Question: Which inhibition does the source give for N#CCCN(C(=O)COC(=O)C(O)(c1ccccc1)c1ccccc1)c1ccc(F)cc1 here?
Answer: inactive: -0.05%

Question: How did the inhibition turn out when CS(=O)(=O)c1cc([N+](=O)[O-])c2no[n+]([O-])c2c1 was run?
Answer: inactive: -2.75%

Question: For O=P(Nc1nccs1)(c1ccccc1)c1nc2ccccc2s1 (stereo not given), which inhibition is on record?
Answer: inactive: 12.7%

Question: How did the inhibition turn out when O=P(Nc1nccs1)(Oc1ccccc1)Oc1ccccc1 was run?
Answer: inactive: -1.94%

Question: With CCOP1(=S)c2c(C)nn(CCC#N)c2N=C(c2ccccc2F)N1C (stereo not given) as the compound, how does the inhibition read?
Answer: inactive: -3.15%

Question: Nc1ccccc1[As](=O)(O)c1ccccc1 was tested. Which inhibition did it give?
Answer: inactive: -0.87%

Question: Which inhibition does the source give for O=C(O)COc1ccc([As](=O)(O)O)cc1[N+](=O)[O-] here?
Answer: inactive: 4.01%

Question: With CC(C)c1ccc(OP(=O)(Nc2ccccn2)Oc2ccccc2F)cc1 (stereo not given) as the compound, how does the inhibition read?
Answer: inactive: 4.78%

Question: For ClCCSc1nnc(-c2cccnc2)o1, which inhibition is on record?
Answer: inactive: 0.5%

Question: For O=[N+]([O-])c1cc([N+](=O)[O-])c(-c2ccn[nH]2)s1, which inhibition is on record?
Answer: inactive: 6.17%

Question: Which inhibition does the source give for CCN(CC)C(=S)SC(NC=O)C(Cl)(Cl)Cl (stereo not given) here?
Answer: inactive: 0.52%

Question: With CC(C)NC(=O)NP(=O)(Oc1ccccc1)Oc1ccccc1 as the compound, how does the inhibition read?
Answer: inactive: 1.39%

Question: How did the inhibition turn out when COc1cc(C(=O)NCC2(N3CCOCC3)CCCCC2)ccc1OCC(C)C was run?
Answer: inactive: 1.12%

Question: For C[As](=O)(O)c1cccc(C(=O)O)c1, which inhibition is on record?
Answer: inactive: 3.35%

Question: How did the inhibition turn out when O=[As](O)(c1ccc(O)cc1)c1ccccc1O was run?
Answer: inactive: -0.13%

Question: Which inhibition does the source give for Cc1ccc2nc3c(c(C)c2c1)CC(C(Cl)Cl)S3 (stereo not given) here?
Answer: inactive: 5.19%

Question: For Cc1ccc(OP(=O)(Nc2ccc([N+](=O)[O-])cn2)Oc2ccc(C)cc2)cc1, which inhibition is on record?
Answer: inactive: -0.36%

Question: With COc1ccc(N/C(=N/P(=O)(N2CCOCC2)N2CCOCC2)N2CCOCC2)cc1 as the compound, how does the inhibition read?
Answer: inactive: -2.61%

Question: Cc1cc(=O)[nH]c(N[N+](=O)[O-])n1 was tested. Which inhibition did it give?
Answer: inactive: -2.94%

Question: For O=C(OC1CN2CCC1CC2)C12CC3CC(CC(C3)C1)C2 (stereo not given), which inhibition is on record?
Answer: inactive: 2.03%

Question: How did the inhibition turn out when Cc1c2c(nc3ccccc13)SC(C(Cl)Cl)C2 (stereo not given) was run?
Answer: inactive: -2.42%

Question: How did the inhibition turn out when COc1cc(I)ccc1[As](=O)(O)O was run?
Answer: inactive: 5.05%

Question: For COc1ccc2nc(NP(=O)(c3ccccc3)c3ccccc3)sc2c1, which inhibition is on record?
Answer: inactive: 2.66%

Question: For CCOC(=O)c1ccc(NC(=O)C(C)(CCl)SC)cc1 (stereo not given), which inhibition is on record?
Answer: inactive: -1.01%

Question: For O=C(OC1CN2CCC1CC2)c1cccc([N+](=O)[O-])c1 (stereo not given), which inhibition is on record?
Answer: inactive: 3.42%

Question: Which inhibition does the source give for CCC(C)N(CC(C)C)C(=S)SC(NC(C)=O)C(Cl)(Cl)Cl (stereo not given) here?
Answer: inactive: -1.84%

Question: With COP1(=S)c2c(C)nn(CCC#N)c2N=C(c2ccc(F)cc2)N1C (stereo not given) as the compound, how does the inhibition read?
Answer: inactive: 3.37%

Question: Which inhibition does the source give for O=C(Nc1ccncc1[N+](=O)[O-])c1ccc([N+](=O)[O-])cc1[N+](=O)[O-] here?
Answer: inactive: -0.03%

Question: For O=C(COc1ccccc1)OC1CN2CCC1CC2 (stereo not given), which inhibition is on record?
Answer: inactive: 2.15%

Question: Which inhibition does the source give for CCOC(=O)Nc1cccc([As](=O)(O)O)c1 here?
Answer: inactive: -1.87%

Question: O=P(Nc1ccccn1)(c1cccc2ccccc12)c1cccc2ccccc12 was tested. Which inhibition did it give?
Answer: inactive: -2.35%

Question: With Cc1cc(SC(NC=O)C(Cl)(Cl)Cl)ncn1 (stereo not given) as the compound, how does the inhibition read?
Answer: inactive: 2.42%

Question: Which inhibition does the source give for CCOC(=O)Nc1ccc([As](=O)(O)O)c(O)c1 here?
Answer: inactive: -5.87%

Question: Which inhibition does the source give for Cc1cc(SC(NC(=O)c2ccccc2)C(Cl)(Cl)Cl)nc(C(C)C)n1 (stereo not given) here?
Answer: inactive: -2.58%
